Reference: PubChem BioAssay AID1347120 (National Center for Advancing Translational Sciences (NCATS), 2019)
This is a selection; strong and weak results do not stand in their true shares. Inconclusive results are not listed. Activity calls are given as the source filed them. Calls follow the shape of the dose curve; as a rule, active = well fitted activation curve with a large enough effect; inconclusive = small, poorly fitted or top-dose-only effect; inactive = no such curve, though single readings can be large or run the other way.

Assay: qHTS for Suppressors of FUS Proteinopathy: Primary screen using FUS-linked yeast assay;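 also: plate controls were DMSO vehicle for no effect and reference control for full effect; nearly all actives have a fitted effect of over 55% in size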
Settings: S. cerevisiae FUS-expressing, OD600, 24 h; at 76.6 µM (top of the series)
Excerpt: Several widespread neurodegenerative diseases, including Alzheimer disease, Huntington disease, Frontotemporal Lobar Degeneration (FTLD) and Amyotrophic Lateral Sclerosis (ALS), share a common pathological feature, namely accumulation of specific protein aggregates in diseased tissue. These diseases which is associated with protein misfolding (proteinopathies) have become increasingly problematic as the population ages and life expectancies are extended. Most proteinopathies are currently incurable, a situation confounded by the fact that the basis of neurodegeneration is generally poorly understood. There exists urgent and significant need to find therapeutics that can inhibit the toxicity associated with protein aggregation. A novel approach to understand the underlying mechanisms of neurodegenerative diseases has recently emerged in which the disease conditions are modeled in the yeast (Saccharomyces cerevisiae), a tractable eukaryotic organism with conserved protein quality control mechanisms. Yeast offers quick and reliable genetic manipulations and can be easily tailored to high-throughput screening (HTS).
For this project, a yeast model of the FUS proteinopathies (a spectrum of neurodegenerative diseases that include ALS and a subtype of FTLD) was generated and employed. The cytoplasmic accumulation of the DNA/RNA-binding protein FUS (also known as TLS) is causative to both familial and sporadic forms of ALS and FTLD. This yeast model recapitulates neuronal pathology by showing severe cytotoxicity associated with cytoplasmic accumulation of FUS aggregates and a specific interaction between FUS and TDP-43, another ALS-associated protein. […] Specifically, the cellular accumulation of misfolded FUS that disrupts RNA homeostasis in both yeast and higher eukaryotes. This model was validated to be suitable for quantitative HTS (qHTS) use for finding genetic or chemical factors that restore growth. […] Identified compounds that inhibits FUS-yeast toxicity is flagged, re-acquired, and validated for further investigation and optimization.
NIH Chemical Genomics Center [NCGC]
NIH Molecular Libraries Probe Production Centers Network [MLPCN]
Assay Submitter (PI): Frank Shewmaker PhD, Uniformed Services University of the Health Sciences
Compound CP55940 was used as the positive control. Column 1 was treated with CP55940 titration from 92uM (final concentration, 1:2 dilution), while Column 2 was treated with top dose 92uM. Columns 3 and 4 were treated with DMSO only as negative control to assess background and noise signal.
Four hundred fifty microliter of cultured yeast (in 20mL rich medium) provided by Dr. Shewmaker lab was incubated at 30C at 99% humidity for 3hr. The culture was then spun down at 4000rpm for 5min and the cell pellet was resuspended in 2mL of Sdmin Media + ALU(330) + 2.5% Raffinose. One hundred microliter of the suspension was added to 900uL of water and OD of the solution was obtained. Twenty mL of responding medium (provided by Shewmaker lab) + 2.5% raffinose was added to ensure cell density of 0.1; the solution was incubated overnight. Working cell solution (FUS-yeast in Sdmi + Sdmi + 1X ALU + 2% galactose media) was prepared (final OD at 0.005) and 3uL was dispensed in a 1536-well Aurora high based clear bottom assay plates. Controls and library compounds (at various final concentrations from 40uM to 0.32uM) were added using a 1536-well pin array using the Kalypsys pin-tool. The plates were then incubated for 24hrs in a cell-culture incubator (30C; 99% humidity). Absorbance at 600nm was then read using the PerkinElmer ViewLux plate reader.

SMILES | growth rescue (activation)
O=[N+]([O-])c1ccc2c(c1)nnn2O | inactive: 22.4%
CCOP1(=S)c2c(C)nn(CCC#N)c2N=C(c2ccc(F)cc2)N1C (centres undefined) | inactive: 0.683%
CN(C(=O)Cc1ccccc1)[C@@H]1CC[C@]2(CCCO2)C[C@H]1N1CCCC1 | inactive: -15%
N#CCCN(C(=O)COC(=O)C(O)(c1ccccc1)c1ccccc1)c1ccc(F)cc1 | inactive: 42.4%
CS(=O)(=O)c1cc([N+](=O)[O-])c2no[n+]([O-])c2c1 | inactive: 20.6%
O=P(Nc1nccs1)(Oc1ccccc1)Oc1ccccc1 | inactive: -19.1%
CCOP1(=S)c2c(C)nn(CCC#N)c2N=C(c2ccccc2F)N1C (centres undefined) | inactive: 4.74%
O=C(O)COc1ccc([As](=O)(O)O)cc1[N+](=O)[O-] | inactive: 1.2%
Nc1ccccc1[As](=O)(O)c1ccccc1 | inactive: -12.2%
CCCOP(=S)(Nc1nc(N)cc(=O)[nH]1)OCCC | inactive: -15.8%
Nc1cccc2c([As](=O)(O)O)cccc12 | inactive: -24%
CCOP(=O)(Nc1cccc2ccccc12)OCC | inactive: 4.87%
CS(=O)(=O)c1ccc(Cl)c(NC(=O)COC(=O)C(O)(c2ccccc2)c2ccccc2)c1 | inactive: 37.5%
COc1cc(C(=O)NCC2(N3CCOCC3)CCCCC2)cc(Cl)c1OC(C)C | inactive: -1.28%
O=[As](O)(O)c1cccnc1 | inactive: -11.6%
O=C(OC1CN2CCC1CC2)c1ccc(Cl)cc1 (centres undefined) | inactive: -7%
O=[As](O)(c1cccc(O)c1)c1cccc(O)c1 | inactive: -19.3%
Cc1cccc(OCC(=O)OC2CN3CCC2CC3)c1 (centres undefined) | inactive: -26.8%
COc1ccc(N/C(=N/P(=O)(N2CCOCC2)N2CCOCC2)N2CCOCC2)cc1 | inactive: 5.75%
Cc1cc(=O)[nH]c(N[N+](=O)[O-])n1 | inactive: -0.573%
O=C(OC1CN2CCC1CC2)C12CC3CC(CC(C3)C1)C2 (centres undefined) | inactive: -16.9%
Cc1c2c(nc3ccccc13)SC(C(Cl)Cl)C2 (centres undefined) | inactive: 26.3%
COc1cc(I)ccc1[As](=O)(O)O | inactive: 3.89%
COc1ccc2nc(NP(=O)(c3ccccc3)c3ccccc3)sc2c1 | inactive: -0.385%
O=P1(N(CCCl)CCCl)Nc2ccccc2N1 | inactive: 3.47%
CC(C)c1ccc(OP(=O)(Nc2ccccn2)Oc2ccccc2F)cc1 (centres undefined) | inactive: 7.51%
ClCCSc1nnc(-c2cccnc2)o1 | inactive: -9.06%
O=[N+]([O-])c1cc([N+](=O)[O-])c(-c2ccn[nH]2)s1 | inactive: -7.81%
O=C(OC1CN2CCC1CC2)c1cccc2[nH]cnc12 (centres undefined) | inactive: -6.94%
